# Apparent affinities of Ab-14 variants for a coronavirus HR2 peptide

Target: peptide PDVDLGDISGINAS, taken from heptad repeat 2 (HR2) of SARS-CoV-2 spike.

The variants keep the heavy chain, the linker and the frameworks of Ab-14 (scFv order VH, three GGGGS repeats, VL).
VH: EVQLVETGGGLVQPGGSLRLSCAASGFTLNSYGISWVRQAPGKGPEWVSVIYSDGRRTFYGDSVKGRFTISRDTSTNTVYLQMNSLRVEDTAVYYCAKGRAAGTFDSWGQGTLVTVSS
VL: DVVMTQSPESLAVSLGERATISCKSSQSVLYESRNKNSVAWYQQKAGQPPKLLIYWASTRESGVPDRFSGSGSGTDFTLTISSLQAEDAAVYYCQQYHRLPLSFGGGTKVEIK

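Variants in AAYL50 differ from the parent at up to three CDR positions; double and triple changes were sampled at random. The assay is AlphaSeq: two haploid yeast populations carry antibody and antigen on their surface. Mating (16 h, 30 °C) was followed by selection of diploids and sequencing of their barcodes. Read counts were normalised to the haploid input and turned into Kd by a linear fit to BCL2-family pairs of known affinity, for each replicate. Each pool was mated in three replicate cultures.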

Variants are written as CDR1, CDR2 and CDR3 of the light chain (limits as in the source). Parent: KSSQSVLYESRNKNSVA, WASTRES, QQYHRLPLS. Every variant below is changed at S28 of the VL (sequential numbering). Values are apparent Kd, the geometric mean of the replicates that gave a signal; lower means stronger binding. Where no diploid with the target was found in any replicate, the entry reads "not detected": below detection, most likely a poor binder, though not proof of it. Background: pairings of library AAYL50 with three empty control strains gave a value in 18% of cases (median 15 µM, 5th percentile 970 nM). Values in that range, when seen in few replicates, are hard to tell from nonspecific mating. In this assay the parent's reference entry averaged 4.4 nM; its copy inside this library read 48 nM.

CDR-L1	CDR-L2	CDR-L3	Kd (apparent)	replicates with signal
SSSQLVLYEARNKNSVA	WASTRES	QQYHRLPLS	16 nM	3 of 3
KSSQLVLYESRNKNSVA	WALFRES	QQYHRLPLS	not detected	0 of 3
KSSQFVLYESRNKNSVI	WASTRES	GQYHRLPLS	not detected	0 of 3
KSSQRVLYESRNKNSVA	WASTRES	QQYHRDPLS	21 nM	3 of 3
KSSQDFLYESTNKNSVA	WASTRES	QQYHRLPLS	3.9 nM	3 of 3
KSSQGVLYESENKNSVA	WTSTRES	QQYHRLPLS	3.5 nM	3 of 3
KSSQQVLYEIRNKNSVA	WASTRES	QQYHRLKLS	7.5 µM	1 of 3
KSSQEVVYESRNKNSVA	WASTRES	PQYHRLPLS	49 µM	1 of 3
KSSQPVTYESRNKNSVA	WAYTRES	QQYHRLPLS	16 nM	3 of 3
KSSNIVLYESRNKNSVA	WASCRES	QQYHRLPLS	200 nM	3 of 3
KSSQCVLYESRNKNSVA	WESTRES	QQYHELPLS	980 nM	3 of 3
KSSQDVLYESRNKNSVA	WASTRTS	QQYHRLPLS	120 nM	3 of 3
KSSQIVLYESRNKNSIA	WASTRES	QFYHRLPLS	not detected	0 of 3
KSSQCVLYESRNKNHVA	WASTRES	QQYHWLPLS	not detected	0 of 3
KSSQRLLYESRNKNSVA	WASTRES	QQYHRLPQS	not detected	0 of 3
KYSQIVLYESRNKNSDA	WASTRES	QQYHRLPLS	4.8 µM	2 of 3
KSSQFVLYESRNKNSVA	WMSTRES	QQYHRLPAS	7.2 µM	1 of 3
KCSQLVLLESRNKNSVA	WASTRES	QQYHRLPLS	15 nM	3 of 3
KSSQFVLYESRNKNSVA	WASTRES	QQYFRLMLS	not detected	0 of 3
KSSQLVLYESRNKNSVA	WAETRES	QNYHRLPLS	1.6 mM	1 of 3
KSSQRVLYESRNKNSNA	WARTRES	QQYHRLPLS	not detected	0 of 3
KSEQEVLYESRNKNSVR	WASTRES	QQYHRLPLS	1.1 µM	1 of 3
KSSQIVLYESRNKNSVA	WASTRAS	QQSHRLPLS	260 nM	3 of 3
KSSQMVLYHSRNKPSVA	WASTRES	QQYHRLPLS	250 nM	3 of 3
KSSQRVLYESRNKNSVA	WASTRES	WQYHRLGLS	5.8 µM	3 of 3
KSSQYILYESRNKNSVA	WASTRVS	QQYHRLPLS	not detected	0 of 3
KSSDCVLYESRNKNSFA	WASTRES	QQYHRLPLS	530 nM	1 of 3
KSSQNVTYESRNKMSVA	WASTRES	QQYHRLPLS	15 nM	3 of 3
KSSQEVLYESRNKNSVA	WASWRES	QQEHRLPLS	1.4 µM	3 of 3
KSSQVVLYESRNKNSVA	WKCTRES	QQYHRLPLS	13 µM	1 of 3
KSSQNVLYESANKNSVA	WALTRES	QQYHRLPLS	530 nM	3 of 3
NSSQAVLYESRNKNSVI	WASTRES	QQYHRLPLS	not detected	0 of 3
KSSQFVLYESRNKKSVA	WGSTRES	QQYHRLPLS	170 nM	3 of 3
KSSQTVLEESRNKNSVA	IASTRES	QQYHRLPLS	2.3 µM	3 of 3
KSSQMVSYESRNKNSVA	YASTRES	QQYHRLPLS	3.7 nM	3 of 3
KSSQTVLYESQNKNSVA	WASTRES	QQYHRLPLS	4.4 nM	3 of 3
KSSQFVLYESRNKNSVA	WASTSES	QQYCRLPLS	1.9 µM	1 of 3
GSSQWTLYESRNKNSVA	WASTRES	QQYHRLPLS	360 nM	3 of 3
KSSQHVLYESRHKNSVA	WASTRFS	QQYHRLPLS	120 nM	3 of 3
KSSQQVLYRSRDKNSVA	WASTRES	QQYHRLPLS	23 nM	3 of 3
KSSQYVLYESWNKNSVA	WASTRES	QQYHRLPLS	470 nM	3 of 3
KSSQGVLYESRNKNSLA	MASTRES	QQYHRLPLS	8.2 nM	3 of 3
KSSQQVLYESRNKNSVA	WASTRES	QRYRRLPLS	44 nM	3 of 3
KSSQWVLYESMNKNSVP	WASTRES	QQYHRLPLS	not detected	0 of 3
KSSQLVLYESRNKVSVA	WASTRES	QQYHRGPLS	not detected	0 of 3

The 6 strongest on average among those seen in every replicate, once more:

CDR-L1	CDR-L2	CDR-L3	Kd (apparent)	replicates with signal
KSSQGVLYESENKNSVA	WTSTRES	QQYHRLPLS	3.5 nM	3 of 3
KSSQMVSYESRNKNSVA	YASTRES	QQYHRLPLS	3.7 nM	3 of 3
KSSQDFLYESTNKNSVA	WASTRES	QQYHRLPLS	3.9 nM	3 of 3
KSSQTVLYESQNKNSVA	WASTRES	QQYHRLPLS	4.4 nM	3 of 3
KSSQGVLYESRNKNSLA	MASTRES	QQYHRLPLS	8.2 nM	3 of 3
KSSQNVTYESRNKMSVA	WASTRES	QQYHRLPLS	15 nM	3 of 3

From the AlphaSeq antibody data of Engelhart et al. 2022 (doi:10.1038/s41597-022-01779-4), copy in the FLAb collection.